The text below walks through data of patent US4555572A, “Pyrazolo[3,4,5-kl]acridine compositions and methods for their production and use” (Warner-Lambert Company, priority 1984, dated 1985).

In this test the test system is lymphocytic leukemia P388. The test can be described thus: in vivo lymphocytic leukemia P388 test. Further details: species or system CD2 F1 mice. Particulars: Mus musculus, P388, ip, 120 h, intraperitoneally once daily for five days, read-out: P388 in vivo T/C × 100. How it is done: Another test protocol is the in vivo lymphocytic leukemia P388 test. The animals used are either male or female CD2 F1 mice, six or seven animals per test group. The tumor transplant is by intraperitoneal injection of dilute ascitic fluid containing cells of lymphocytic leukemia P388. The test compounds are administered intraperitoneally once daily for five consecutive days at various doses following tumor inoculation. The animals are weighed and survivors are recorded on a regular basis for 30 days. A compound is designated "toxic" if, at a given dose, all animals died prior to four days after the first injection of drug. A ratio of survival time for treated (T)/control (C) animals is calculated. A criterion for efficacy is a ratio T/C times 100 greater than or equal to 125. See Cancer Chemotherapy Reports, Part 3, 3, 1 (1972) for a comprehensive discussion of the protocol.

Counter-ions that a name gives are not always drawn.

As for `CC[N+]([O-])(CC)CCn1nc2c3c(c([N+](=O)[O-])ccc31)Nc1ccccc1-2` [Example 35, N,N-Diethyl-5-nitropyrazolo[3,4,5-kl]acridine-2(6H)-ethanamine, N-oxide, methanesulfonate salt (5:6), hydrate (4:3)], the response vs control in vivo at 6.25 mg/kg came out at 128%.
